The assay addresses Human immunodeficiency virus type 1 reverse transcriptase (Human immunodeficiency virus 1, UniProt Q72547). As to the kind of experiment: Inhibition of HIV-1 reverse transcriptase assessed as reduction in biotin-dUTP incorporation into cDNA incubated for 1 hr with DIG-dUTP, biotin-dUTP and dTTP followed by transferring onto streptavidin-coated plate and measured after 1 hr by ELISA. The essentials:
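Recombinant WT HIV-1 RT was tested with a Roche colorimetric kit. Enzyme, reconstituted template, DIG-dUTP, biotin-dUTP and dTTP were incubated 1 h at 37 °C in incubation buffer with or without inhibitor. The mix was then held 1 h at 37 °C on a streptavidin-coated plate, then anti-DIG-POD 1 h at 37 °C, then ABTS at 25 °C, and read at OD405. IC50 is the concentration giving 50% inhibition of biotin-dUTP incorporation.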
For orientation: In an ELISA, binding on a coated surface is turned into a signal by an enzyme label.

One may read the IC50 as the concentration at which inhibition is half-maximal.

As to `Cc1cc(C#N)cc(C)c1Oc1nc(Nc2ccc(C#N)cc2)nc(N)c1Br` [ETRAVIRINE], the half-inhibitory concentration (IC50) is 0.35 µM.
